Experimental findings from patent publication EP4419152B1, “USE OF A COMPOSITION COMPRISING PERFORMIC ACID AS BIOCIDE IN INDUSTRIAL COOLING SYSTEMS” (dated 2026) are described below.

In one experiment the test system is microbial load. Kind of experiment: Microbial regrowth test in cooling tower basin water, EasyCult kits. Conditions: Example 1b; for microbial load: Figure 3, water of 06/05, diluted 1:100, 48 hours.
Another experiment deals with aerobic microbial loads. Kind of experiment: Microbial regrowth test in cooling tower basin water, vials by NACE TM 0194-2004 method. Conditions: Example 1c, Figure 5, white diluted 1 to 30, N=8 vials.
The next experiment has as its system E. coli. The experiment in a line: Disinfection effectiveness of peracids, E. coli. The following applies: for E. coli; literature data and laboratory tests.
The test system of a further experiment is enterococci. The experiment in a line: Disinfection effectiveness of peracids, enterococci. Conditions: for enterococci; literature data and laboratory tests.
The subject of a further experiment is L. pneumophila. The experiment in a line: Viability of L. pneumophila after disinfection with PFA. The following applies: contact time 10 minutes.

As to `O=CO`, the microbial load result in the experiment with microbial load (10ppm of Formic acid) and in the experiment on microbial load (50ppm of Formic acid) was “at least 10^6 UFC” throughout. For the same compound, the biocidal effect entry in the experiment with microbial load (10 and 50 mg/L formic acid solution) was “would not seem to perform biocidal effect”. Besides, the Positive vials in the experiment with aerobic microbial loads (10ppm of Formic acid) and with aerobic microbial loads (30ppm of Formic acid) was 7/8 each time.
As to `O=COO`, the “disinfection effectiveness (rank order of peracids)” value is reported as “PFA > PAA” with E. coli and “PFA > PPA” with enterococci. For the same compound, the values for the Reduction % in the experiment on L. pneumophila (1 mg PFA/L), in the experiment on L. pneumophila (2 mg PFA/L) and in the experiment on L. pneumophila (4 mg PFA/L) were 99.8%, 100% and 100%, respectively. Moreover, the “Bacterial density, cfu/mL Average” value in the experiment with L. pneumophila (1 mg PFA/L, detection limit 10 cfu/mL) is reported as 1.3 x 10^2 cfu/mL.
